# AlphaSeq binding of Ab-14 light chain variants to a spike HR2 peptide

Antigen: PDVDLGDISGINAS, a 14-residue peptide of the SARS-CoV-2 spike HR2 region.

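In library AAYL50, one, two or three CDR residues were substituted; doubles and triples were drawn at random. Affinity was read by AlphaSeq, a pooled yeast mating assay with surface-displayed partners. Mating (16 h, 30 °C) was followed by selection of diploids and sequencing of their barcodes. Scores were corrected for input abundance and mapped to Kd with protein pairs of known affinity run in the same pool. There are three technical replicates.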

The variants keep the heavy chain, the linker and the frameworks of Ab-14 (scFv order VH, a (GGGGS)3 linker, VL).
VH: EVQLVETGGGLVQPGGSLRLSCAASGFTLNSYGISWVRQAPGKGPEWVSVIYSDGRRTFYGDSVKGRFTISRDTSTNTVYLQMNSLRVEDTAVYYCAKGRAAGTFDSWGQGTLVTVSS
VL: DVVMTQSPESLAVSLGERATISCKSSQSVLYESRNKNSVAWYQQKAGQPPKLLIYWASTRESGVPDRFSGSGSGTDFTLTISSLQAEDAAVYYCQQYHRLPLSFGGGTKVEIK

Positions count from residue 1 of the parent VL; S33I puts I in place of S. Scale: log10 of Kd in nM, estimated from mating counts; low values are strong binders. "ND" marks a missing value. The strain was present, yet no cells mated with the target were sequenced in that replicate, which points to weak or no binding.

With S33I+V39S+A40K the result was ND, ND, ND (controls 0 of 9).
With K24P+A57M+E61C the result was 3.64, ND, ND (controls 1 of 9).
With E32C+L102P the result was 3.13, 3.26, 2.96 (controls 2 of 9).
With S26P+Y31P+S62M the result was ND, ND, 2.97 (controls 0 of 9).
With N35D+K36P+T59Y the result was 1.71, 1.65, 1.86 (controls 1 of 9).
With S26H+N37H+A57R the result was ND, ND, ND (controls 1 of 9).
With S25L+A40R+S62I the result was ND, 3.89, ND (controls 1 of 9).
With K24S+S26F+E61P the result was 2.99, 3.01, 3.81 (controls 2 of 9).
With V39D+A40R+Q95R the result was ND, ND, 4.55 (controls 1 of 9).
With S26D+V29Y+L100C the result was ND, ND, ND (controls 0 of 9).
With N37G+T59Q+L100T the result was ND, 3.43, ND (controls 1 of 9).
With Q27S+V29S+N37T the result was 2.12, 1.90, 1.80 (controls 1 of 9).
With S28N+L30N+S58Y the result was 1.06, 1.31, 1.30 (controls 2 of 9).
With T59D+Q95D+Y97I the result was 5.44, 3.63, ND (controls 1 of 9).
With L30A+V39W+Y97P the result was ND, 4.70, 4.07 (controls 4 of 9).
With Y31T+S38T+Y97C the result was 1.97, 2.03, 2.26 (controls 1 of 9).
With Q27D+N35M+Y97E the result was 2.90, 3.28, 3.22 (controls 5 of 9).
With E32C+N35Y+A57F the result was ND, ND, ND (controls 0 of 9).
With S25T+V29E+S33C the result was ND, 3.28, ND (controls 0 of 9).
With K24C+V39E+A40S the result was ND, 4.73, ND (controls 0 of 9).
With A40I+T59H+Y97I the result was 5.24, ND, 3.78 (controls 4 of 9).
With Q27H+A40G+Q95K the result was ND, ND, 5.19 (controls 0 of 9).
With N35C+T59E+R60P the result was 3.98, 3.45, ND (controls 2 of 9).
With K24N+N37C+A57G the result was 1.22, 1.86, 1.68 (controls 1 of 9).
With K36E+R60Q+S62W the result was 3.12, 3.39, 3.91 (controls 3 of 9).
With V29N+S62H+Y97V the result was 3.43, 2.51, 2.06 (controls 2 of 9).
With K24L+S28H+L100N the result was ND, ND, ND (controls 0 of 9).
With N37Q+A57Q+Q95K the result was ND, ND, ND (controls 2 of 9).
With V29N+L30S+A57T the result was 1.05, 1.20, 1.17 (controls 1 of 9).
With L30M+S38T+S103N the result was ND, 3.56, 5.09 (controls 4 of 9).
With S25H+T59S+L102I the result was ND, ND, 2.70 (controls 1 of 9).
With R34A+Y97L+S103N the result was ND, ND, ND (controls 2 of 9).
With K36R+W56K the result was 0.98, 1.27, 1.18 (controls 0 of 9).

A selection of 5 entries from above:

changes,"log10 Kd, replicates",control signals
E32C+N35Y+A57F,"ND, ND, ND",0/9
L30A+V39W+Y97P,"ND, 4.70, 4.07",4/9
K24P+A57M+E61C,"3.64, ND, ND",1/9
S25T+V29E+S33C,"ND, 3.28, ND",0/9
N35D+K36P+T59Y,"1.71, 1.65, 1.86",1/9

Three control strains display no target. For library AAYL50, 18% of the pairings with them gave a signal, with a median of 4.19 and one signal in twenty below 2.99, so weak values seen in few replicates may be background. The control count says in how many pairings with the empty strains this scFv gave a signal.

Data: MIT Lincoln Laboratory AlphaSeq set, Engelhart et al. 2022, doi:10.1038/s41597-022-01779-4, as distributed in FLAb.